{"source": "paper PMC12477777", "about": "“Human exposure to green spaces and monoterpenes: discovery and use of α-pinene metabolites as biomarkers” (Environment international, 2025)", "key": {"[1]": {"assay": "Kinetic modeling of urinary aPM with a pseudo one-compartment nonlinear mixed-effects model after α-pinene inhalation", "type": "in vivo", "details": "human urine after α-pinene inhalation", "description": "In this equation, i represents the participant index, j the urine sample index, C the creatinine-normalized peak response, and t the sample collection time ( h).Ka denotes the first-order generation constant ( h^−1 ), and Ke denotes the first-order elimination rate constant h^−1 . F indicates the fraction of specific aPM relative to absorbed α-pinene. The variables D and V refer to the absorbed α-pinene amount and the distribution volume, respectively. Because input data were derived from relative quantification, absolute values of D , V , and F were not available. For simplicity, D and V were fixed at 100 and 1, respectively, and F was normalized relative to the sum of all detected aPM. The error term ε accounts for residual variation."}, "[2]": {"assay": "aPM in mouse urine after i.p. injection of (+)-α-pinene or (−)-α-pinene", "type": "in vivo, mice (C57BL/6)", "details": "mouse urine collected overnight", "procedure": "Mouse urine was collected after exposures to either (+) or (−) α-pinene to distinguish between metabolites of different enantiomers of α-pinene. Adult male mice (C57BL/6) were intraperitoneally administered with 50 mg/kg body weight of (+)-α-pinene or (−)-α-pinene dissolved in 100 μl sterile saline with 1 % Tween 80."}, "[3]": {"assay": "Relative quantification of urinary aPM (UPLC-QTOF-MS, creatinine-normalized) after controlled α-pinene inhalation", "type": "in vivo, human", "procedure": "(§1) Briefly, for controlled inhalation experiments, eight healthy volunteers were exposed to α-pinene in a custom-built exposure chamber via inhalation from a 15 ml conical tube, containing approximately 100 μl α-pinene, for a duration of 10 min. Urine samples were collected before exposure (0 h) and 0.5, 1, 2, 3, and 4 h after exposure. […] Urine samples were collected both before (0 h) or 4 h after exposure. After collection, the urine samples were centrifuged and stored at −80 °C before analysis. […] Demographic information, including sex, age and race, can be found in Table S1.\nBriefly, after 1:10 dilution, urine samples were separated using an Acquity I-Class UPLC system with an Acquity Premier CSH C18 UPLC column (Waters, MA) with a gradient comprising 0.1 % formic acid in water as the solvent A and 0.1 % formic acid in acetonitrile as the solvent B. Mass Spectrometry Elevated Energy (MS^E) data were collected using a Waters Synapt XS MS (Waters, MA) with an ESI ion source operated in the negative mode. Subsequent analyses of raw files were performed using UNIFI 1.9 and Progenesis QI 3.0 (both from Waters, MA). To validate LC-MS performance, one quality control (QC) sample, prepared by pooling equal amount of each urine sample, was injected after every ten urine sample injections.\nRelative quantification of aPM was performed based on the peak responses normalized to urinary creatinine levels. Urinary creatinine levels were measured using an Ace Axcel Clinical Chemistry System with ACE Creatinine Reagent from Alfa Wassermann (West Caldwell, NJ). Statistical analyses, including ANOVA and Student’s t-tests, were conducted using SAS 9.4 (SAS Institute, NC) to explore differences in aPM across various time points. […] A threshold for statistical significance was defined as p < 0.05."}, "[4]": {"assay": "Urinary aPM after 4 h greenness (forest) exposure", "type": "in vivo", "parameters": "Maximum response: unit not given here", "details": "human urine", "procedure": "as §1\nBriefly, after 1:10 dilution, urine samples were separated using an Acquity I-Class UPLC system with an Acquity Premier CSH C18 UPLC column (Waters, MA) with a gradient comprising 0.1 % formic acid in water as the solvent A and 0.1 % formic acid in acetonitrile as the solvent B. Mass Spectrometry Elevated Energy (MS^E) data were collected using a Waters Synapt XS MS (Waters, MA) with an ESI ion source operated in the negative mode. Subsequent analyses of raw files were performed using UNIFI 1.9 and Progenesis QI 3.0 (both from Waters, MA). […]\nRelative quantification of aPM was performed based on the peak responses normalized to urinary creatinine levels. Urinary creatinine levels were measured using an Ace Axcel Clinical Chemistry System with ACE Creatinine Reagent from Alfa Wassermann (West Caldwell, NJ). […]"}, "[5]": {"details": "human urine after α-pinene inhalation"}}}
{"substance": "α-Pinene-O-GlcA [aPM2a]", "values": [{"measurement": "Ka, first-order generation constant", "setting": "[1]", "result": "2.69 ± 0.68", "unit": "h⁻¹"}, {"measurement": "(1R)-(+)-α-Pinene (Average), proportion of aPM in mouse urine", "setting": "[2]; 50 mg/kg i.p. (+)-α-pinene", "result": 0.0, "unit": "%"}, {"measurement": "(1S)-(−)-α-Pinene (Average), proportion of aPM in mouse urine", "setting": "[2]; 50 mg/kg i.p. (−)-α-pinene", "result": 0.0, "unit": "%"}, {"measurement": "Frequency of occurrence (percentage of samples with analyte detected)", "setting": "[3]; [5]", "result": 75.0, "unit": "%"}, {"measurement": "Maximum response (highest peak response across all urine samples)", "setting": "[3]; [5]", "result": 13299}, {"measurement": "Proportion (observed) after α-pinene inhalation", "setting": "[3]; share of total response of 22 aPM, averaged over post-exposure samples", "result": 0.3, "unit": "%"}, {"measurement": "Frequency of occurrence", "setting": "[4]", "result": 25.0, "unit": "%"}, {"measurement": "Maximum response", "setting": "[4]", "result": 445}]}
